Measurements taken from patent US8658697B2 (priority 2004, dated 2014).

System: Vero cells

Compound: CC(NC(=O)NNS(=O)(=O)c1ccc(OC(F)F)cc1)(C(F)(F)F)C(F)(F)F [ST-294, N-2-(1,1,1,3,3,3-hexafluoro-1-methylpropyl)-2-[(4-difluoromethoxyphenyl)sulfonyl]hydrazine-1-carboxamide]
- selective index (SI = CC50/EC50): > 416
